{"source": "paper PMC2581579", "about": "(The Journal of Biological Chemistry, 2008)", "target": "the molecule itself", "test": "SEC"}
{"protein": "wild type ferritin light chain (WT-FTL) homopolymer (natural protein, human, UniProt P02792 1-175, looked up) MSSQIRQNYSTDVEAAVNSLVNLYLQASYTYLSLGFYFDRDDVALEGVSHFFRELAEEKREGYERLLKMQNQRGGRALFQDIKKPAEDEWGKTPDAMKAAMALEKKLNQALLDLHALGSARTDPHLCDFLETHFLDEEVKLIKKMGDHLTNLHRLGGPEAGLGEYLFERLTLKHD", "values": [{"measurement": "stoichiometry N", "value": 24}]}
